The values that follow are results of earlier work, collected in US12042530B2, “Target peptides for immunotherapy and diagnostics” (University of Virginia Patent Foundation, priority 2012, dated 2024).

This data set deals with melanoma. The note with it: reported; cited from earlier work.

“high-dose interleukin-2: FDA approved immune therapy for advanced melanoma”: the Objective response rate is listed as 17%.
